Test: Adsorbent study: reduction of 3NOP concentration in solution (HPLC 230 nm)
Conditions: 0.2 g of adsorbent in 10 mL of 1% 3NOP/H2O; 24 h; control 8.258 mM

## Iron Phosphate
  3NOP concentration remaining in solution: 7.503 mM

Reference: US20250222082A1, “PROTEIN AND PEPTIDE VACCINES TARGETING METHANOGENS” (Arkea Bio Corp., priority 2024, published 2025)
